System: Leukemia K562 cell
Assay: Leukemia K562 cell proliferation/viability assay (CellTiterGlo, 48 hours)
Type: cell-based
Settings: Homo sapiens; K562 cells

## O=C(NCCO)c1cccc(-c2cc(Nc3ccc(OC(F)(F)F)cc3)ncn2)c1 [GNF-5]
  IC50: 935 nM

Reference: patent publication US11649218B2, “C-Abl tyrosine kinase inhibitory compound embodiments and methods of making and using the same” (The USA, as represented by the Secretary, Dept. of Health …, priority 2018, dated 2023)
